Reference: the NIST ThermoML archive (doi:10.1021/je8005369)
± gives the expanded uncertainty stated by the source.

Conditions: Liquid; for mass density: Vibrating Wire Viscometer; for viscosity: Vibrating wire viscometry

CCCCOCCCC [dibutyl ether]
Conditions	mass density [kg/m3]	viscosity [mPa·s]
243.15 K, 100 kPa	809.772 ± 1.6	1.734 ± 0.037
243.15 K, 4800 kPa	812.717 ± 1.6	1.836 ± 0.039
243.15 K, 10290 kPa	816.304 ± 1.6	1.954 ± 0.042
243.15 K, 15700 kPa	819.465 ± 1.6	2.083 ± 0.045
243.15 K, 21120 kPa	822.606 ± 1.7	2.221 ± 0.048
253.15 K, 100 kPa	801.37 ± 1.6	1.379 ± 0.03
253.15 K, 4550 kPa	804.548 ± 1.6	1.448 ± 0.031
253.15 K, 9650 kPa	807.789 ± 1.6	1.54 ± 0.033
253.15 K, 14760 kPa	811.186 ± 1.6	1.624 ± 0.035
253.15 K, 19760 kPa	814.14 ± 1.6	1.716 ± 0.037
263.15 K, 100 kPa	793.117 ± 1.6	1.126 ± 0.024
263.15 K, 4650 kPa	796.489 ± 1.6	1.183 ± 0.026
263.15 K, 10000 kPa	800.232 ± 1.6	1.256 ± 0.027
263.15 K, 15290 kPa	803.649 ± 1.6	1.332 ± 0.029
263.15 K, 20520 kPa	807.105 ± 1.6	1.404 ± 0.03
273.15 K, 100 kPa	784.503 ± 1.6	0.942 ± 0.021
273.15 K, 4810 kPa	788.298 ± 1.6	0.9913 ± 0.022
273.15 K, 10200 kPa	792.324 ± 1.6	1.049 ± 0.023
273.15 K, 15570 kPa	796.106 ± 1.6	1.109 ± 0.024
273.15 K, 20870 kPa	799.664 ± 1.6	1.171 ± 0.025
283.15 K, 100 kPa	776.314 ± 1.6	0.8032 ± 0.018
283.15 K, 4780 kPa	780.133 ± 1.6	0.8437 ± 0.019
283.15 K, 10150 kPa	784.429 ± 1.6	0.8898 ± 0.02
283.15 K, 15580 kPa	788.422 ± 1.6	0.9423 ± 0.021
283.15 K, 20830 kPa	792.172 ± 1.6	0.9923 ± 0.022
293.15 K, 100 kPa	767.938 ± 1.5	0.6906 ± 0.015
293.15 K, 4750 kPa	772.058 ± 1.6	0.7263 ± 0.016
293.15 K, 10180 kPa	776.552 ± 1.6	0.7684 ± 0.017
293.15 K, 15470 kPa	780.608 ± 1.6	0.812 ± 0.018
293.15 K, 20760 kPa	784.626 ± 1.6	0.8546 ± 0.019
303.15 K, 100 kPa	759.934 ± 1.5	0.608 ± 0.014
303.15 K, 4500 kPa	763.973 ± 1.5	0.6386 ± 0.015
303.15 K, 9570 kPa	768.455 ± 1.6	0.6735 ± 0.015
303.15 K, 14530 kPa	772.612 ± 1.6	0.7081 ± 0.016
303.15 K, 19670 kPa	776.718 ± 1.6	0.7436 ± 0.017
313.15 K, 100 kPa	751.438 ± 1.5	0.5388 ± 0.012
313.15 K, 4510 kPa	755.825 ± 1.5	0.5648 ± 0.013
313.15 K, 9600 kPa	760.621 ± 1.5	0.5966 ± 0.014
313.15 K, 14650 kPa	765.058 ± 1.5	0.6282 ± 0.014
313.15 K, 19640 kPa	769.315 ± 1.6	0.6571 ± 0.015
323.15 K, 100 kPa	743.119 ± 1.5	0.4805 ± 0.011
323.15 K, 4510 kPa	747.707 ± 1.5	0.5061 ± 0.012
323.15 K, 9570 kPa	752.915 ± 1.5	0.5306 ± 0.012
323.15 K, 14630 kPa	757.591 ± 1.5	0.5608 ± 0.013
323.15 K, 19600 kPa	761.898 ± 1.5	0.59 ± 0.013
333.15 K, 100 kPa	734.484 ± 1.5	0.4326 ± 0.01
333.15 K, 4490 kPa	739.443 ± 1.5	0.4553 ± 0.011
333.15 K, 9580 kPa	744.884 ± 1.5	0.4806 ± 0.011
333.15 K, 14630 kPa	749.942 ± 1.5	0.5061 ± 0.012
333.15 K, 19620 kPa	754.541 ± 1.5	0.5317 ± 0.012
343.15 K, 100 kPa	725.879 ± 1.5	0.3914 ± 0.0095
343.15 K, 4640 kPa	731.433 ± 1.5	0.412 ± 0.0099
343.15 K, 9640 kPa	737.137 ± 1.5	0.4352 ± 0.01
343.15 K, 14730 kPa	742.477 ± 1.5	0.4581 ± 0.011
343.15 K, 19730 kPa	747.369 ± 1.5	0.4822 ± 0.011
353.15 K, 100 kPa	717.116 ± 1.5	0.3538 ± 0.0088
353.15 K, 4510 kPa	722.869 ± 1.5	0.3738 ± 0.0091
353.15 K, 9570 kPa	729.12 ± 1.5	0.3945 ± 0.0095
353.15 K, 14640 kPa	734.754 ± 1.5	0.4166 ± 0.01
353.15 K, 19630 kPa	740.012 ± 1.5	0.4373 ± 0.01
363.15 K, 100 kPa	708.168 ± 1.4	0.3236 ± 0.0082
363.15 K, 4510 kPa	714.412 ± 1.5	0.3413 ± 0.0085
363.15 K, 9720 kPa	721.185 ± 1.5	0.3622 ± 0.0089
363.15 K, 15300 kPa	727.703 ± 1.5	0.3835 ± 0.0093
363.15 K, 21100 kPa	733.972 ± 1.5	0.407 ± 0.0098
373.15 K, 100 kPa	699.123 ± 1.4	0.2954 ± 0.0077
373.15 K, 4900 kPa	706.359 ± 1.4	0.3145 ± 0.008
373.15 K, 10170 kPa	713.653 ± 1.5	0.3337 ± 0.0084
373.15 K, 15630 kPa	720.422 ± 1.5	0.3536 ± 0.0088
373.15 K, 20590 kPa	726.094 ± 1.5	0.3733 ± 0.0091
